Assay results as given in PubChem BioAssay AID434959 (Broad Institute, 2010).
This is a selection; strong and weak results do not stand in their true shares. Some structures show a salt or complex split into parts, the way the source records it. Activity calls are given as the source filed them.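 The calls were made as follows: active = delta delta Cp rounded down to an integer at or above 3, about 3 SD of DMSO wells; inactive = the rest.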

Assay: inhibitors of YB-1 gene expression, primary screen, cell-based, fluorescence (AID 434959);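 also: higher means less YB-1 transcript or more CDIP transcript relative to DMSO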
Conditions: U2OS, qRT-PCR YB-1 vs CDIP delta delta Cp, 16 h; hits give high values; zero = DMSO, each unit about twofold

SMILES | delta Cp (YB-1 minus CDIP)
CN(C(=O)Cc1ccc(Cl)c(Cl)c1)[C@H]1CCCC[C@@H]1N1CCCC1 | inactive: -0.131
COc1cc2c(cc1NP(C)(=O)Oc1ccccc1)oc1ccccc12 (stereo unspecified) | inactive: 0.154
O=C(OC1CN2CCC1CC2)c1ccc(Cl)cc1 (stereo unspecified) | inactive: -0.497
Cc1ccc(C(=O)OC2CN3CCC2CC3)cc1 (stereo unspecified) | inactive: -0.153
O=P1(Nc2ccccn2)COc2ccccc2OC1 | inactive: -0.523
C/C1=C2N=C(/C=C3N=C(/C(C)=C4\[N-][C@@](C)([C@@H]5N=C1[C@](C)(CCC(=O)NCC(C)OP(=O)(O)O[C@@H]1[C@H](O)[C@H](n6cnc7cc(C)c(C)cc76)O[C@H]1CO)[C@H]5CC(N)=O)[C@@](C)(CC(N)=O)[C@@H]4CCC(N)=O)[C@@](C)(CC(N)=O)[C@@H]\3CCC(N)=O)C(C)(C)[C@@H]/2CCC(N)=O.[C-]#N.[Co+3] (stereo partly specified) | inactive: -0.0935
